Test results as given in US20250353912A1, “COMPOSITIONS AND METHODS COMPRISING ANTIBODIES THAT BIND TO COVALENT PEPTIDE CONJUGATES” (New York University, priority 2022, published 2025).
Substitutions are numbered along the chain they refer to.

Columns and labels:
Format in all cases: cell-based
[1] = test system: lung cancer cell lines; experiment: Cytotoxicity of scDb on drug-treated lung cancer cell lines with human T cells (PrestoBlue viability); details: 100 nM AMG-510 for 24 hr, human T-cells E:T=5:1, FIG. 19A
Method: FIGS. 19A and 19B. Graphs showing specific cytotoxic effect of AMRA3-7_UCHT1 scDb on drug-treated lung cancer cell lines. […] After incubation, cell viability was measured. […] Data shown here are from quadruplicate measurements.
To obtain the results for FIG. 19, lung cancer cell lines were cultured in RPMI supplemented with 10% fetal bovine serum (FBS) and penicillin/streptomycin. For cytotoxicity assays, 1×10^4 cells/well were seeded in 96-well flat bottom plates and incubated at 37° C., 5% CO2 for 24 hours. Media were replaced with fresh media supplemented with 100 nM AMG-510 or DMSO, then the cells were incubated for 24 hours at 37° C. After incubation, cells were co-cultured with human T cells (E:T=5:1) and AMRA3-7_UCHT1 scDb in the presence of 100 IU/mL IL-2 for 24 hr at 37° C. Cell viability was assessed by using PrestoBlue™ Cell Viability Reagent (ThermoFisher, A13261). Cytotoxicity was calculated by taking the fluorescent signal of a given well, subtracting the fluorescent signal from the wells that contain only T-cells, and normalizing to the fluorescent signal from the wells without scDb.

[2] = test system: Raji cells; experiment: Cytotoxicity of scDb on AMG510-treated wild-type KRAS cells with human T cells (flow cytometry); details: 1 μM AMG-510, T-cells E:T=5:1, 18 hr, FIG. 38
[3] = test system: OCI-AML3 cells; experiment: Cytotoxicity of scDb with human T cells (flow cytometry viability of CSFE-positive cells); details: for cytotoxic effect on cells treated with the same peptide without drug conjugation: OCI-AML3, 1 μM EGFR-bME, FIG. 41; for cytotoxic effect on cells spiked with the osimertinib-EGFR peptide conjugate: OCI-AML3, 1 μM peptide conjugate, T-cells E:T=5:1, FIG. 41; for cytotoxic effect on OCI-AML3 cells treated with osimertinib: cells do not possess the target of osimertinib, FIG. 42
Description: FIG. 41. Cytotoxic effect of scDb antibodies on the cells spiked with the drug-peptide conjugates. […] BB7.2 scDb is an anti-pan HLA-A2 clone, which was used as a positive control. Data shown are from triplicate measurements.
FIG. 42. Cytotoxic effects of scDb antibodies on OCI-AML3 cells treated with osimertinib. […] BB7.2 scDb is an anti-pan HLA-A2 clone, which was used as a positive control. Data shown are from triplicate measurements.
OCI-AML3 cells were culture in IMDM supplemented with 20% fetal bovine serum (FBS) and penicillin/streptomycin. OCI-AML3 cells were first stained with carboxyfluorescein succinimidyl ester (CSFE, ThermoFisher, 65-0850-84), then incubated with the final 1 μM EGFR-osimertinib peptide, or 1 μM EGFR peptide pretreated with beta-mercaptoethanol (EGFR-bME) (FIG. 41) or 1 mM osimertinib (FIG. 42) in the presence of 10 μg/mL human beta-2 microglobulin for 4 hr. The cells were harvested using centrifugation and washed in the media. The cells were then co-cultured with human T-cells (E:T=5:1) in the presence of scDb for 18-19 hr. After incubation, cells were harvested and washed with PBS, then stained with Fixable Viability Dye eFluor660 (ThermoFisher, 65-0864-14). After washing cells, the cells were analyzed on iQue screener (Satorius) and the viability of CSFE-positive cells was assessed.

B1: AMRA3-7_UCHT1 scDb: single-chain Diabody targeting HLA-A*03:01 and HLA-A*11:01 RAS-AMG510, with UCHT1 (protein)
chain: DIVRSDIQMTQSPSSLSASVGDRVTITCRASQSVSSAVAWYQQKPGKAPKLLIYSASSLYSGVPSRFSGSRSGTDFTLTISSLQPEDFATYYCQQISYVYSLITFGQGTKVEIKGGGGSEVQLQQSGPELVKPGASMKISCKASGYSFTGYTMNWVKQSHGKNLEWMGLINPYKGVSTYNQKFKDKATLTVDKSSSTAYMELLSLTSEDSAVYYCARSGYYGDSDWYFDVWGQGTTLTVSSGGGGSGGGGSGGGGSDIQMTQTTSSLSASLGDRVTISCRASQDIRNYLNWYQQKPDGTVKLLIYYTSRLHSGVPSKFSGSGSGTDYSLTISNLEQEDIATYFCQQGNTLPWTFAGGTKLEIKGGGGSEVQLVESGGGLVQPGGSLRLSCAASGFTFSSYSIHWVRQAPGKGLEWVASIYSSYGYTSYADSVKGRFTISADTSKNTAYLQMNSLRAEDTAVYYCARGGWYPAMDYWGQGTLVTVSSLEGGGGLNDIFEAQKIEWHESRHHHHHH
[1]
  cytotoxic effect on drug-treated lung cancer cell lines: dose-dependent cytotoxic effects only on AMG510-treated cells with the cognate KRAS mutation (G12C) and HLA (HLA-A3)
[2]
  cytotoxic effect on AMG510-treated Raji cells (wild-type KRAS, HLA-A*03): Lack of cytotoxic effect

B2: EO_Q16 scDb: single-chain Diabody built from EO_Q16 and UCHT1 (protein)
chain: DIVRSDIQMTQSPSSLSASVGDRVTITCRASQSVSSAVAWYQQKPGKAPKLLIYSASSLYSGVPSRFSGSRSGTDFTLTISSLQPEDFATYYCQQYSDWPITFGQGTKVEIKGGGGSEVQLQQSGPELVKPGASMKISCKASGYSFTGYTMNWVKQSHGKNLEWMGLINPYKGVSTYNQKFKDKATLTVDKSSSTAYMELLSLTSEDSAVYYCARSGYYGDSDWYFDVWGQGTTLTVSSGGGGSGGGGSGGGGSDIQMTQTTSSLSASLGDRVTISCRASQDIRNYLNWYQQKPDGTVKLLIYYTSRLHSGVPSKFSGSGSGTDYSLTISNLEQEDIATYFCQQGNTLPWTFAGGTKLEIKGGGGSEVQLVESGGGLVQPGGSLRLSCAASGFTISSSYIHWVRQAPGKGLEWVAYISPSYGSTSYADSVKGRFTISADTSKNTAYLQMNSLRAEDTAVYYCAREYVTMSIDYWGQGTLVTVSSLEGGGGLNDIFEAQKIEWHESRHHHHHH
[3]
  cytotoxic effect on cells treated with the same peptide without drug conjugation: not on the cells treated with the same peptide without drug conjugation
  cytotoxic effect on cells spiked with the osimertinib-EGFR peptide conjugate: potent cytotoxic effects
  cytotoxic effect on OCI-AML3 cells treated with osimertinib: did not show cytotoxic effects

B3: EO_Q17 scDb: single-chain Diabody built from EO_Q17 and UCHT1 (protein)
chain: B2 chain with D98S, Y466L, T468E, S470T, I471P
[3]
  cytotoxic effect on cells treated with the same peptide without drug conjugation: not on the cells treated with the same peptide without drug conjugation
  cytotoxic effect on cells spiked with the osimertinib-EGFR peptide conjugate: potent cytotoxic effects
  cytotoxic effect on OCI-AML3 cells treated with osimertinib: did not show cytotoxic effects
